Here are results for two substances from article PMC11051159, “Green Synthesis of Gold Nanoparticles Using Liquiritin and Other Phenolics from Glycyrrhiza glabra and Their Anti-Inflammatory Activity” (Journal of Functional Biomaterials, 2024).

In one data set the test system is RAW 264.7 cells. The data set is described as follows: Cell viability assay (WST-1). Format: cell-based, murine. As to conditions: for effect on cell viability (in words): 0–100 μg/mL. The method, then:
The RAW 264.7 cells were seeded at 1 × 10^6 cells/mL in 96-well tissue culture-treated plates for cell viability and nitric oxide assays. The seeded cells were incubated under standard tissue culture conditions at 37 °C in a humidified atmosphere of 5% CO2 for approximately 24 h until the cells reached 70–80% confluence. The cells were subsequently exposed to the relevant AuNP conjugates, total extract, or compounds. After that, the cells were either left unstimulated or stimulated with 1 μg/mL lipopolysaccharide (LPS, from E. coli O111:B4, Sigma-Aldrich) to yield a final concentration range of 0–100 μg/mL of the appropriate treatment. The cells were then incubated overnight under standard tissue culture conditions.
The supernatants were removed after incubation, and cells were washed with phosphate-buffered saline (PBS, Lonza). Cell viability was assessed by adding 50 μL of a 1/10 dilution of 2-(4-iodophenyl)-3-(4-nitrophenyl)-5-(2,4-disulfophenyl)-2H-tetrazolium (WST-1, Roche, Basel, Switzerland) in complete DMEM medium to each well. Metabolically active cells convert the WST-1 reagent to a formazan that can be measured spectrophotometrically. Formazan formation was determined by reading the plate at 450 nm immediately after adding WST-1 and again after an incubation period of 1 h at 37 °C. The increase in absorbance is proportional to formazan formation and directly proportional to cell viability. The difference between the zero-absorbance reading and 1 hr incubation was used to calculate the percentage of cell viability. Cell viability was calculated as a percentage of the control using the below formula:(1) Cell viability as a % of Control=T1−T0/U1−U0×100 where T1 is the absorbance of the treated sample after 1 h, T0 is the absorbance of the treated at 0 h, U1 is the absorbance of the untreated sample after 1h, and U0 is the absorbance of the untreated sample at 0 h.
On the technique in general: Tetrazolium assays rely on reduction of a dye to a coloured formazan, in cell work by metabolically active cells.

Data set [1] concerns human epithelial cells (HT1080). Also on record: method as in PMID 30618749. As to conditions: up to 100 μM; cited from earlier work.

For the substance isoliquiritin apioside [Comp. 4], the “effect on cell viability (in words)” value is given as “did not affect cell viability” with RAW 264.7 cells (RAW 264.7, absence of LPS) and “did not impact cell viability” in the data set with RAW 264.7 cells (RAW 264.7, absence of LPS, listed as isoliquiritin apioside (4)). Further, the “effect on cell proliferation (in words)” value in data set [1] is on record as “did not affect cell proliferation”.

Turning to liquiritin apioside [Comp. 5], the “effect on cell viability (in words)” value was “did not negatively impact cell viability” with RAW 264.7 cells (RAW 264.7, presence of LPS); “did not affect RAW cell proliferation” with RAW 264.7 cells (RAW 264.7, presence of LPS, listed as Liquiritin apioside (5)); “did not hinder cell proliferation” in the data set on RAW 264.7 cells (RAW 264.7, presence of LPS, listed as liquiritin apioside (5)). Besides, the “concentration at which cell viability was significantly decreased (cytotoxic)” value with RAW 264.7 cells (RAW 264.7, presence of LPS, range tested 0–100 μg/mL) was not below 6250 ng/mL.
